In US9624218B2 (Eli Lilly and Company, priority 2014, dated 2017):

Tested on: Wnt-inducible genes (TCF/LEF luciferase reporter in DLD-1 TOPFlash cells)
Test: cells
Conditions: Homo sapiens, DLD-1, 24 h, read-out: Wnt-inducible gene expression inhibition IC50, DLD-1 TOPFlash cells, 24 hours; Mean ± SEM

Structure (SMILES): CCC(c1ncccn1)N1CCN(c2nc3c(c(=O)[nH]2)CCCN3C)CC1 (single isomer, unassigned; isomer 1) [Example 11, 8-Methyl-2-[4-(1-pyrimidin-2-ylpropyl)piperazin-1-yl]-3,5,6,7-tetrahydropyrido[2,3-d]pyrimidin-4-one, Isomer 1]
- IC50: 28.1 nM

Structure (SMILES): CN1CCCc2c1nc(N1CCN(Cc3nccc(Cl)n3)CC1)[nH]c2=O [Example 41, 2-[4-[(4-Chloropyrimidin-2-yl)methyl]piperazin-1-yl]-8-methyl-3,5,6,7-tetrahydropyrido[2,3-d]pyrimidin-4-one]
- IC50: 13.8 nM
